# According to US8609688B2, “Substituted imidazopyridinyl-aminopyridine compounds” (ArQule, Inc., priority 2011, dated 2013):
# Amino acid sequences for entries named in this document (tags omitted). A change or cut given only in a name is not applied to a line headed by its entry.
# UniProt P31749: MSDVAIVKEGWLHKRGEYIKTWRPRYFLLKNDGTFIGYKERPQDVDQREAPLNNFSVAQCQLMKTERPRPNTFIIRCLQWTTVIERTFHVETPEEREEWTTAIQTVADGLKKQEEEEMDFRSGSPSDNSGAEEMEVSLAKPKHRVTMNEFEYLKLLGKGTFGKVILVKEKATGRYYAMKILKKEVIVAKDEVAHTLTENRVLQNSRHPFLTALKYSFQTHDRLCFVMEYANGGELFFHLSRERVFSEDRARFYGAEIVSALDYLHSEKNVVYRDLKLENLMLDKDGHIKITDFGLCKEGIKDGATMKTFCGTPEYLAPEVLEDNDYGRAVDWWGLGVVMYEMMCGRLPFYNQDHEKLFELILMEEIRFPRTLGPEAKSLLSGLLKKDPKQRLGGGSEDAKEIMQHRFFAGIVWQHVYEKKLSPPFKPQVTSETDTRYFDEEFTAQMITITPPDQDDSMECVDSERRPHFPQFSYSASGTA
# How the values were obtained:
# [1] = target: T1, Full-length inactive AKT1 (Homo sapiens (Human), UniProt P31749); assay: Thermal Shift Assay (protein-ligand binding); details: Kd at 25° C. calculated using constant ligand binding enthalpy −15 kcal/mol; 15 μM compound, ANS dye
# Description: Binding analysis. Protein-ligand binding was identified with the thermal shift assay which is based on the ligand-induced stabilization of the protein tertiary structure. The thermal stability of the ligand-Akt1 complex was assessed by subjecting the complex to a set temperature gradient and by comparison of the meltion temperature of the Akt1-ligand complex with the melting temperature of the protein alone. Protein unfolding was monitored by the fluorescence readout of an environmentally sensitive fluorescent dye, 1-anilinonaphthalene-8-sulfonic acid (ANS). […] The PCR plate was placed into a RT-PCR instrument and a temperature gradient was performed, increasing from 27 to 80° C., at 1° C./30 sec heat rate with a dwell time of 20 sec. The change in ANS fluorescence was measured using the filter set of 475 nm/525 nm excitation/emission. Ligand affinity parameter (Kd) at 25° C. was calculated using constant ligand binding enthalpy ? H=−15 kcal/mol.
# [2] = target: T1, Full-length inactive AKT1; assay: Inactive Akt Alpha Screen Assay; details: 8 nM inactive Akt1 activated by PDK1 and MAPKAPK2, lipid vesicles, 50 μM ATP, biotinylated crosstide; read-out: Akt1 biochemical assay IC50 AlphaScreen crosstide
# Description: AKT1 activity was assayed using the GSK3-derived biotinylated peptide substrate, crosstide (biotin-GRPRTSSFAEG), and AlphaScreen™ (Amplified Luminescent Proximity Homogeneous Assay) technology. AKT1 activation was achieved by the addition of the activating kinases PDK1 and MAPKAPK2, lipid vesicles, and ATP. The extent of peptide phosphorylation was determined using a phospho-AKT substrate antibody and acceptor beads conjugated to Protein A and donor beads conjugated to streptavidin that bind to the biotin on the peptide. […]
# Test inhibitors and controls ((S)-1-((5-(3-methyl-1H-indazol-5-yl)pyridin-3-yl)oxy)-3-phenylpropan-2-amine, 1-(1-(4-(7-phenyl-1H-imidazo[4,5-g]quinoxalin-6-yl)benzyl)piperidin-4-yl)-1H-benzo[d]imidazol-2(3H)-one, and 8-(4-(1-aminocyclobutyl)phenyl)-9-phenyl[1,2,4]triazolo[3,4-f][1,6]naphthyridin-3(2H)-one) were prepared in 10% DMSO at 10-fold the desired final concentration, and added to each well of a reaction plate (Corning 96-well half-area solid white nonbinding surface plate) in a volume of 2.5 μL. […] Assay plates were incubated for 90 minutes at room temperature in the dark, and the plates were read on a Perkin Elmer Envision Multilabel plate reader (excitation wavelength: 640 nm, emission wavelength: 570 nm). […]
smiles,measurement,setting,value
"C[C@H](O)CNC(=O)c1cccc(-c2ccc3nc(-c4cccnc4N)n(-c4ccc(C5(N)CCC5)cc4)c3n2)c1 [Cmpd 7, (S)-3-(3-(4-(1-aminocyclobutyl)phenyl)-2-(2-aminopyridin-3-yl)-3H-imidazo[4,5-b]pyridin-5-yl)-N-(2-hydroxypropyl)benzamide]",Kd,[1],7.1 nM
"C[C@@H](O)CNC(=O)c1cccc(-c2ccc3nc(-c4cccnc4N)n(-c4ccc(C5(N)CCC5)cc4)c3n2)c1 [Cmpd 8, (R)-3-(3-(4-(1-aminocyclobutyl)phenyl)-2-(2-aminopyridin-3-yl)-3H-imidazo[4,5-b]pyridin-5-yl)-N-(2-hydroxypropyl)benzamide]",IC50,[2],1.5 nM
same,Kd,[1],1.2 nM
"CC(=O)NC1CCN(c2cccc(-c3ccc4nc(-c5cccnc5N)n(-c5ccc(C6(N)CCC6)cc5)c4n3)c2)CC1 [Cmpd 12, N-(1-(3-(3-(4-(1-aminocyclobutyl)phenyl)-2-(2-aminopyridin-3-yl)-3H-imidazo[4,5-b]pyridin-5-yl)phenyl)piperidin-4-yl)acetamide]",IC50,[2],1.44 nM
same,Kd,[1],0.2 nM
